This is a selection; strong and weak results do not stand in their true shares. Calls of active or inactive are those of the source.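 Rule for the calls: active = mean cytotoxicity at 5 µM above about 25% (limit read from the data); inactive = the rest.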

A short description of this test: cell viability loss, Sufu-null reporter line – ATP luminescence, single concentration, cytotoxicity control for Gli-SUFU antagonist project, confirmation (AID 651994).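 Note: cells exposed to compound overnight for roughly 16 to 18 hours; plate controls were DMSO wells with cells for no effect and medium without cells for full effect.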 The conditions noted are these: Sufu-KO-LIGHT cells cytotoxicity, at 5 µM, hits give high values.
For the compound `N#C/C(=C\c1ccc(N(CCBr)CCBr)cc1)C(N)=O`, the cytotoxicity was inactive: 20.4%.

As to `CC(=O)NC(SC(=S)N(C)C)C(Cl)(Cl)Cl` (stereo not drawn), the cytotoxicity was active: 31.6%.

Take `CN1CCCC(OC(=O)C(c2ccccc2)c2ccccc2)C1` (stereo not drawn): the cytotoxicity was inactive: 19.7%.

The values above are taken from PubChem BioAssay AID651994 (Sanford-Burnham Center for Chemical Genomics, 2013).
